Measurements: paper PMC3038857, “Using Nuclear Receptor Activity to Stratify Hepatocarcinogens” (PLoS ONE, 2011)

Key:
CYP1A1 = test: CLZD_CYP1A1: Change in expression of CYP1A1 (primary human hepatocytes); type: cell-based; conditions: 24 hr
Description: (§1) This is a collection of multiplexed gene expression assays focused on Phase I and II xenobiotic metabolizing enzymes and transporters. Human primary cell cultures were treated with chemicals at 5 concentrations (0.004-40 [drawing 42] M) for 6, 24 and 48 hr. Concentration- and time-response profiles of chemicals were measured by the expression of key nuclear receptor target genes, activities of CYP1A enzymes (EROD), and cell morphology. Fourteen gene targets were monitored by quantitative nuclease protection assay including: six representative cytochrome P-450 genes, four hepatic transporters, three Phase II conjugating enzymes, and one endogenous metabolism gene involved in cholesterol synthesis. […]
(§2) Multiplexed Gene Expression in Human Primary Hepatocytes: This is a collection of multiplexed gene expression assays focused on Phase I and II metabolic enzymes and transporters. […] Fourteen gene targets were monitored by quantitative nuclease protection assay: six representative cytochrome P450 genes, four hepatic transporters, three Phase II conjugating enzymes, and one endogenous metabolism gene involved in cholesterol synthesis. […]

CYP1A2 = test: CLZD_CYP1A2: Change in expression of CYP1A2 (primary human hepatocytes); type: cell-based; conditions: 24 hr
Description: as §1, §2

`O=C(Nc1ccc([N+](=O)[O-])cc1Cl)c1cc(Cl)ccc1O` [row 220] gave a CLZD_CYP1A1_24 (CYP1A1) of 5.154 and a CLZD_CYP1A2_24 (CYP1A2) of 4.956.
